Measured values published in PubChem BioAssay AID1850 (Southern Research Specialized Biocontainment Screening …, 2009).
The entries are a selection whose mix differs from that of the whole data set. Results with a measured potency or affinity are listed apart. Calls of active or inactive are those of the source. The rule behind the calls is not given here.

Test: Inhibition of PhoP regulon, Salmonella typhi GFP reporter cells, confirmation, 4 h (AID 1850);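 note: 0% = induced wells with vehicle and 100% = uninduced wells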
Conditions: Salmonella Typhi PhoP-promoter GFP reporter, fluorescence, at 50 µM, active compounds read high

Structure (SMILES) | inhibition
CC(=O)Nc1ccc(Oc2c([N+](=O)[O-])cc([N+](=O)[O-])cc2[N+](=O)[O-])cc1 | inactive: 4.32%
CC(=O)Nc1ccc([As](=O)(O)O)c(O)c1 | inactive: 0.23%
C[C@H]1OP(=O)(Oc2ccccc2)C[C@@H]2O[C@@H]21 (stereo not given in full) | inactive: -4.51%
C[C@@H]1C=CCP(=O)(Oc2ccccc2)O1 (stereo not given in full) | inactive: -5.17%
CC(=O)c1ccc(N2CC2c2ccncc2)cc1 (stereo not given) | inactive: 1.8%
CC(C)(C)C(=O)NC(Sc1ccccc1)C(Cl)(Cl)Cl (stereo not given) | inactive: -6.08%
CCOc1ccc(C2=NCC(CBr)S2)cc1 (stereo not given) | inactive: 4.46%
O=P1(Nc2nc3ccc(Cl)cc3s2)COc2ccccc2O1 (stereo not given) | inactive: -14%
CCOP(=O)(Nc1cccc2ccccc12)OCC | inactive: -7.36%
COc1cc(C2NCCC3(OCCO3)C2(C)C)cc(OC)c1OC (stereo not given) | inactive: -3.29%
Nc1cccc2c([As](=O)(O)O)cccc12 | inactive: 1.97%
Cc1ccc(NCCc2c([N+](=O)[O-])cc([N+](=O)[O-])cc2[N+](=O)[O-])cc1 | inactive: -8.1%
CCCOP(=S)(Nc1nc(N)cc(=O)[nH]1)OCCC | inactive: -2.36%
Cc1cccc(OCC(=O)OC2CN3CCC2CC3)c1 (stereo not given) | inactive: 12.6%
O=[As](O)(c1cccc(O)c1)c1cccc(O)c1 | inactive: 5.53%
O=C(OC1CN2CCC1CC2)c1ccc(Cl)cc1 (stereo not given) | inactive: 7.89%
CS(=O)(=O)c1ccc(Cl)c(NC(=O)COC(=O)C(O)(c2ccccc2)c2ccccc2)c1 | inactive: -5.96%
O=[As](O)(O)c1cccnc1 | inactive: 0.09%
COc1cc(C(=O)NCC2(N3CCOCC3)CCCCC2)cc(Cl)c1OC(C)C | inactive: 4.2%
CCOP1(=S)c2c(C)nn(CCC#N)c2N=C(c2ccc(F)cc2)N1C (stereo not given) | inactive: 4.49%
CN(C(=O)Cc1ccccc1)[C@@H]1CC[C@]2(CCCO2)C[C@H]1N1CCCC1 | inactive: 0.76%
N#CCCN(C(=O)COC(=O)C(O)(c1ccccc1)c1ccccc1)c1ccc(F)cc1 | inactive: 2.07%
CN(C(=O)Cc1ccc(Cl)c(Cl)c1)[C@H]1CC[C@@]2(CCCO2)C[C@@H]1N1CCCC1 | inactive: -18.5%
O=[N+]([O-])c1ccc2c(c1)nnn2O | inactive: 2.45%
CN(C)C(=O)c1cc([N+](=O)[O-])cc2c1-c1c(cc([N+](=O)[O-])cc1[N+](=O)[O-])C2=O | inactive: -0.14%
NC(=O)Nc1ccc([As](=O)(O)O)cc1 | inactive: 5.77%
O=C(O)COc1ccc([As](=O)(O)O)cc1[N+](=O)[O-] | inactive: -3.43%

Structure (SMILES) | inhibition
Nc1ccccc1[As](=O)(O)c1ccccc1 | inactive: -13.4%
O=P(Nc1nccs1)(Oc1ccccc1)Oc1ccccc1 | inactive: 21.5%
O=P(Nc1nccs1)(c1ccccc1)c1nc2ccccc2s1 (stereo not given) | inactive: 0%
CCOP1(=S)c2c(C)nn(CCC#N)c2N=C(c2ccccc2F)N1C (stereo not given) | inactive: -15.1%
CS(=O)(=O)c1cc([N+](=O)[O-])c2no[n+]([O-])c2c1 | inactive: -54.9%
Nc1cccc([As](=O)(O)c2ccccc2)c1 | inactive: -7.26%
O=[As](O)(c1cccs1)c1cccs1 | inactive: 5.33%
Cc1ccc(OCC(=O)OC2CN3CCC2CC3)cc1 (stereo not given) | inactive: 0.16%
O=P1(Nc2ccc(Br)cn2)COc2ccccc2OC1 | inactive: 3.41%
O=P1(Nc2ncccn2)COc2ccccc2OC1 | inactive: -13.1%
CN(C)C1(CNC(=O)c2ccc(S(C)(=O)=O)cc2)CCCCC1 | inactive: 4.62%
O=C(/C=C/c1ccccc1)OC1CN2CCC1CC2 (stereo not given) | inactive: -0.27%
Cc1ccc(C(=O)OC2CN3CCC2CC3)cc1 (stereo not given) | inactive: -0.37%
CC1CCC(C(C)C)C(OP(=O)(Nc2ccccn2)c2ccccc2)C1 (stereo not given) | inactive: -7.09%
Cc1nn(-c2ccccc2)c2c1P(=O)(N1CCOCC1)N(C)C(c1ccccc1)=N2 (stereo not given) | inactive: -4.03%
CN(C(=O)Cc1ccc(Cl)c(Cl)c1)[C@@H]1CCCC[C@H]1N1CCCC1 | inactive: -2.68%
CC(C)/C=N\N=C(\N)N[N+](=O)[O-] | inactive: 0.28%
CC1(CBr)Cn2c(nc3ccccc3c2=O)S1 (stereo not given) | inactive: -4.28%
O=[As](O)(c1ccccc1Br)c1ccccc1Br | inactive: 5.61%
COc1ccccc1CNC(=O)COC(=O)C(O)(c1ccccc1)c1ccccc1 | inactive: -1.97%
CC(C)(C)C(=O)NC(Sc1ncccn1)C(Cl)(Cl)Cl (stereo not given) | inactive: 5.6%
Clc1n[nH]nc1-c1nn[nH][15n]1 | inactive: 6.24%
CCOP(=O)(NC(=NC(C)c1ccccc1)NC(C)c1ccccc1)OCC (stereo not given) | inactive: 5%
O=P1(Nc2ccccn2)COc2ccccc2OC1 | inactive: -8.05%
CCOP(=O)(Nc1ccc(C)cn1)OCC | inactive: -5.22%
CN(CCCl)Cc1cc(Cl)c(NC2=NCCN2)c(Cl)c1 | inactive: 1.05%
CCC(C)N(CC(C)C)C(=S)SC(NC(C)=O)C(Cl)(Cl)Cl (stereo not given) | inactive: -17.2%

Structure (SMILES) | inhibition
O=C(OC1CN2CCC1CC2)c1cccc([N+](=O)[O-])c1 (stereo not given) | inactive: 6.16%
CCOC(=O)c1ccc(NC(=O)C(C)(CCl)SC)cc1 (stereo not given) | inactive: -4.61%
O=C(Nc1ccncc1[N+](=O)[O-])c1ccc([N+](=O)[O-])cc1[N+](=O)[O-] | inactive: 8.82%
O=C(COc1ccccc1)OC1CN2CCC1CC2 (stereo not given) | inactive: 0.57%
COP1(=S)c2c(C)nn(CCC#N)c2N=C(c2ccc(F)cc2)N1C (stereo not given) | inactive: 7.15%
Cc1cc(SC(NC=O)C(Cl)(Cl)Cl)ncn1 (stereo not given) | inactive: -4.32%
O=P(Nc1ccccn1)(c1cccc2ccccc12)c1cccc2ccccc12 | inactive: 10.9%
O=[N+]([O-])c1ccc(Nc2ccc(Oc3ccc([N+](=O)[O-])cc3[N+](=O)[O-])cc2)c([N+](=O)[O-])c1 | inactive: -0.04%
CCOC(=O)Nc1cccc([As](=O)(O)O)c1 | inactive: -8.81%
Cc1cc(SC(NC(=O)c2ccccc2)C(Cl)(Cl)Cl)nc(C(C)C)n1 (stereo not given) | inactive: -4.88%
CCOC(=O)Nc1ccc([As](=O)(O)O)c(O)c1 | inactive: 8.87%
O=[N+]([O-])c1cc([N+](=O)[O-])c(-c2ccn[nH]2)s1 | inactive: -0.95%
CC(C)NC(=O)NP(=O)(Oc1ccccc1)Oc1ccccc1 | inactive: 2.13%
CCN(CC)C(=S)SC(NC=O)C(Cl)(Cl)Cl (stereo not given) | inactive: -3.63%
ClCCSc1nnc(-c2cccnc2)o1 | inactive: 7.72%
CC(C)c1ccc(OP(=O)(Nc2ccccn2)Oc2ccccc2F)cc1 (stereo not given) | inactive: 16.8%
Cc1ccc(OP(=O)(Nc2ccc([N+](=O)[O-])cn2)Oc2ccc(C)cc2)cc1 | inactive: -4.34%
Cc1ccc2nc3c(c(C)c2c1)CC(C(Cl)Cl)S3 (stereo not given) | inactive: -5.48%
O=[As](O)(c1ccc(O)cc1)c1ccccc1O | inactive: -5.82%
C[As](=O)(O)c1cccc(C(=O)O)c1 | inactive: -2.82%
COc1ccc(N/C(=N/P(=O)(N2CCOCC2)N2CCOCC2)N2CCOCC2)cc1 | inactive: -3.32%
COc1cc(I)ccc1[As](=O)(O)O | inactive: 1.79%
COc1ccc2nc(NP(=O)(c3ccccc3)c3ccccc3)sc2c1 | inactive: 3.59%
Cc1c2c(nc3ccccc13)SC(C(Cl)Cl)C2 (stereo not given) | inactive: -6.75%
Cc1cc(=O)[nH]c(N[N+](=O)[O-])n1 | inactive: -3.2%
O=C(OC1CN2CCC1CC2)C12CC3CC(CC(C3)C1)C2 (stereo not given) | inactive: 9.94%
